These results are taken from patent US20070004724A1, “(+)-(2S,3s)-2-(3-chlorophenyl)-3,5,5-trimethyl-2-morpholinor for treating anxiety” (priority 2003, published 2007).

Sequences of proteins named here, by UniProt entry; tags and fusion partners are left off.
UniProt Q01959, whole entry: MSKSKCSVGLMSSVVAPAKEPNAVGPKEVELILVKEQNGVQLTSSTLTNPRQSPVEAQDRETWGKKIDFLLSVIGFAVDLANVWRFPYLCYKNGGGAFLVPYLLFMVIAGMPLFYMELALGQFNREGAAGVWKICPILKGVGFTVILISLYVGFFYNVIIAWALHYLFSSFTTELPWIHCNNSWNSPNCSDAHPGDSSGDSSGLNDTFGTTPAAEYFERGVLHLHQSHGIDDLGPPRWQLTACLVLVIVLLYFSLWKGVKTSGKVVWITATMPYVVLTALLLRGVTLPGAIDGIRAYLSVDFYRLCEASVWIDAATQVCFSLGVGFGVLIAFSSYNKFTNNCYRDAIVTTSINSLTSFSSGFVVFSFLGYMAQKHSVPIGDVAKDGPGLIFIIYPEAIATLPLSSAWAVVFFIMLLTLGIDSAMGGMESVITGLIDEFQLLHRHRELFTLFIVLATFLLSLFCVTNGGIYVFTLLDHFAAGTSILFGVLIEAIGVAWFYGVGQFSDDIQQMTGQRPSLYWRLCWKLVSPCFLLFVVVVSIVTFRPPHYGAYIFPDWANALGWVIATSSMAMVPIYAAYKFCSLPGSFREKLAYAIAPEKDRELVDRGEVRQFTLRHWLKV
UniProt P31645, whole entry: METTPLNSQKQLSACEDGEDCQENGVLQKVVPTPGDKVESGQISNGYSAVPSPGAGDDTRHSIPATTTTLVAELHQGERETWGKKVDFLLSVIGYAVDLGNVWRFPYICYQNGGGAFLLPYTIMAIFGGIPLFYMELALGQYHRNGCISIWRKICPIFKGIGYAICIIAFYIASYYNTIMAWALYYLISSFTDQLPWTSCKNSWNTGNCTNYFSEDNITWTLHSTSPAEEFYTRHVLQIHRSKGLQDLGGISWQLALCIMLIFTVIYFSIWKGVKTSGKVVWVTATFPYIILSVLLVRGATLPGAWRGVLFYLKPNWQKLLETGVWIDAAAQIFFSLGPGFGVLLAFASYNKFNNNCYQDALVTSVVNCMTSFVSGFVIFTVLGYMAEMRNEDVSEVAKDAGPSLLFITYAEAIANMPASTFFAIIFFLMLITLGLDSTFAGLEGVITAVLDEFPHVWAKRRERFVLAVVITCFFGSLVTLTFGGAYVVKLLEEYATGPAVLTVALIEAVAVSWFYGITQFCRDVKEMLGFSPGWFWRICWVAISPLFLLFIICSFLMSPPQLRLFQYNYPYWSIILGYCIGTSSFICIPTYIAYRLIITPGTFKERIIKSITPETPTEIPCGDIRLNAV

Assay [1] has as its target T1, human dopamine transporter (hDAT) (Homo sapiens, UniProt Q01959).
T1 construct: expressed in transfected cells; host or cells: CHO-K1 cells
The assay can be described thus: Functional reuptake inhibition, CHO-K1/hDAT cells. In kind it is cell-based. The procedure:
Reduction of [^3H]Dopamine uptake by 50 percent or more (≧50%) relative to vehicle controls indicates significant inhibitory activity.
Compounds were screened at 10, 1, 0.1, 0.01 and 0.001 μM. […] Radioactivity retained on the filters was determined by scintillation counting overnight using a Packard scintillation counter.

Assay [2] concerns the target T2, human serotonin transporter (hSERT) (Homo sapiens, UniProt P31645).
T2 construct: expressed in transfected cells; host or cells: HEK-293 cells
The assay can be described thus: Functional reuptake inhibition, HEK-293/hSERT cells. In kind it is cell-based. The protocol: Three separate cell-lines expressing human monoamine transporters for dopamine (hDAT) noradrenaline (hNET) and serotonin (hSERT) were used to measure the functional reuptake inhibiting properties of the compound of formula (I) (as its hydrochloride salt). The following methods were utilised.
Human serotonin transporter (hSERT): HEK-293/hSERT cells (5×10^4 cells/tube) expressing the human serotonin transporter (hSERT) were added into the minitube on 96-tube holder prior to assay. Cells were preincubated with test compound or vehicle in modified Tris-HEPES buffer pH 7.1 at 25° C. for 20 minutes, then 65 nM [^3H]Serotonin was added to make the total volume to 200 μl and further incubated for 10 minutes. Cells were then washed by filtration through cell harvester four times with PBS buffer containing 0.1% BSA and the GF/B filter was counted to determine [^3H]Serotonin uptake. Non-specific signal was determined in the presence of 10 μM fluoxetine. […]
Compounds were screened at 10, 1, 0.1, 0.01 and 0.001 μM. These same concentrations were concurrently applied to a separate group of untreated cells and evaluated for possible compound-induced cytotoxicity only if significant inhibition of uptake was observed. Radioactivity retained on the filters was determined by scintillation counting overnight using a Packard scintillation counter.

Where a name gives a salt, the structure may show the parent alone. Read-outs that look alike come from different tables or passages of the source. A value given as a limit tells only on which side of the number the result lay.

Turning to `C[C@@H]1NC(C)(C)CO[C@@]1(O)c1cccc(Cl)c1` [Formula (I). HCl, (+)-(2S,3S)-2-(3-chlorophenyl)-3,5,5-trimethyl-2-morpholinol hydrochloride], the IC50 in assay [1] ([3H]Dopamine uptake, mean±SEM, n=3, read-out: hDAT IC50) was 440 ± 10 nM; in assay [1] (reuptake inhibition, read-out: pIC50 hDAT (converted)), 437 nM; in assay [2], greater than 10 µM.
